Measurements as given in EP0803065B1, “A-PROTEIN AS A DIAGNOSTIC OF CANCER” (THE SCHEPENS EYE RESEARCH INSTITUTE, priority 1995, dated 1996).

Molecular target: T1, soluble A-protein (As), purified from bovine rod outer segments, N-terminus SEQ ID NO:2 (Bos taurus, UniProt P21457)
T1 sequence (P21457 2-202): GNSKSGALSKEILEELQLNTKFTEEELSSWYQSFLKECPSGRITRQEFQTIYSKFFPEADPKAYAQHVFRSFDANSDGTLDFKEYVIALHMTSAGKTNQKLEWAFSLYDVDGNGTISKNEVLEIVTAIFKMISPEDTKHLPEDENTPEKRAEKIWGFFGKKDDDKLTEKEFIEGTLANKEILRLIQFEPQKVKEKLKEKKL
Experiment: ATPase assay (hydrolysis of [γ-32P]ATP)
Assay type: biochemical
Settings: double reciprocal plots and regression analysis
Protocol: The rate of hydrolysis of GTP or ATP by both soluble and membrane-bound A-protein was assayed in a total volume of 200 µl. 1.0 to 10.0 µg As or Am, 5 x 10^-5 M GTP or ATP, 67 to 335 nM [γ-^32P] GTP (2.8 Ci/mmol) or 88.8 to 177.5 nM [γ-^32P] ATP (2.8 Ci/mmol) and 20 µl of stripped ROS membranes (in the case of Am) were mixed in buffer J (20 mM Tris-HCl, pH 7.0, 0.1 mM EDTA). The stripped ROS membranes (containing rhodopsin as the receptor) were prepared by washing ROS membranes 3 times in buffer C(100 mM NaCl, 20 mM Tris-HCl, pH 7.0, 1 mM MgCl2) and 3 times in water containing 0.01% polyoxyethylene 23 lauryl ether (Brij 35™ nonionic detergent, Sigma Chemical Co.). […]
The effect of light on the hydrolysis of GTP or ATP was investigated by means of duplicate incubations in light exposure trials (a bright 10 msec xenon flash (Nikon) delivering 1.8 x 10^3 µWcm^-2sec^-1 which was sufficient to bleach greater than 70% of the rhodopsin present in each sample) or kept in the dark as controls. […] 50 µl aliquots of each supernatant were placed in a vial with 5 ml scintillation fluid and assayed for radioactivity. The hydrolysis of [γ-^32P]-GTP was measured in the presence and absence of photolyzed rhodopsin.
The apparent Michaelis constant was determined for As and Am by measuring the rate of GTP hydrolysis over a thousand-fold range of substrate concentrations. […]

## Nc1ncnc2c1ncn2[C@@H]1O[C@H](COP(=O)(O)OP(=O)(O)OP(=O)(O)O)[C@@H](O)[C@H]1O [ATP, adenosine triphosphate]
  Vmax:As ATPase: 0.56 (±0.09) pmol/mg A-protein min^-1
